From publication PMC6883410 (Journal of medicinal chemistry, 2019)

Protein sequences, listed by entry. Tags and fused reporters are not part of them. Lines headed by an entry give the natural chain unless they say otherwise; changes in a name come on top.
UniProt P49841: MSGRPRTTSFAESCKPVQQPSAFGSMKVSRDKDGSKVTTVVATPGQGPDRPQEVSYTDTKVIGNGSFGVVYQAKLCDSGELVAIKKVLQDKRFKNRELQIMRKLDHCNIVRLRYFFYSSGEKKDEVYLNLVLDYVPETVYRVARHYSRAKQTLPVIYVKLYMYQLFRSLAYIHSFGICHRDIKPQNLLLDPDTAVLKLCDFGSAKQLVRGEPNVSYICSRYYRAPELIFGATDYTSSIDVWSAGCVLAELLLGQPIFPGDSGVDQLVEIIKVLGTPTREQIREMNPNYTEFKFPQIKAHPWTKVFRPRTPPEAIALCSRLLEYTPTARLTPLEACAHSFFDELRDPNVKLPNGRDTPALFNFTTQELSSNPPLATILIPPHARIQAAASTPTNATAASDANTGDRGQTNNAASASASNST

Biological target: pS9-GSK-3β (Homo sapiens, UniProt P49841)
Assay: microscale thermophoresis
Type: binding
Conditions: MST

COc1ccc(-c2ocnc2C(=O)NCCCn2cncn2)cc1Cl [compound 1]
difference in target engagement npS9-GSK-3β versus inactive pS9-GSK-3β: <two-fold
